From paper PMC4368516 (PLoS Neglected Tropical Diseases, 2015)
Where a name gives a salt, the structure may show the parent alone.

Chains of the proteins cited; added tags and fusions are not shown.
UniProt A0A0B5H0X6, entry or part of it: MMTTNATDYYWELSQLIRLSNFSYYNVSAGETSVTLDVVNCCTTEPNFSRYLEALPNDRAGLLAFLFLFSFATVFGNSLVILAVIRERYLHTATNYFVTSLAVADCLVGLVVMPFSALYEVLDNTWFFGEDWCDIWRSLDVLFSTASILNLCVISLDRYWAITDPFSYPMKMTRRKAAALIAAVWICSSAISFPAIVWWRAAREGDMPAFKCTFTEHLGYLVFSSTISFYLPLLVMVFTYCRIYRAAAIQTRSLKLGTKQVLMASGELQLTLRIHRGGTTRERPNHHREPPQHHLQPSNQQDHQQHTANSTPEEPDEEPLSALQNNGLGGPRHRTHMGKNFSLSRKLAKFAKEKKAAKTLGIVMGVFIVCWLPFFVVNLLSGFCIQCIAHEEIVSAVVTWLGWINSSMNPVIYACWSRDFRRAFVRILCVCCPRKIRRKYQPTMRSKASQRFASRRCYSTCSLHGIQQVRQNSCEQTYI
UniProt P21728, whole entry: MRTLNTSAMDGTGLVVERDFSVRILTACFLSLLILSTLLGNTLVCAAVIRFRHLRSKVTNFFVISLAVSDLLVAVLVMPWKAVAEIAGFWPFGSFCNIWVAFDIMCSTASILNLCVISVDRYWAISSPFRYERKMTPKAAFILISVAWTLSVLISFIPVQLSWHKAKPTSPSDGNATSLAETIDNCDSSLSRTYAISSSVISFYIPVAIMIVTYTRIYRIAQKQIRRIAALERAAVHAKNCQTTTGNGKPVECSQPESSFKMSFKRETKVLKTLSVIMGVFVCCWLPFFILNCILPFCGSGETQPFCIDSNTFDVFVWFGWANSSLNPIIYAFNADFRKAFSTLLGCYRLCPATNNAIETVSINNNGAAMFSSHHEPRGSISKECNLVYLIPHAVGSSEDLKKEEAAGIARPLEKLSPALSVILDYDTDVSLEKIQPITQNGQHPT

Columns and labels:
AaDOP2 = target: T1, AaDOP2 (Aedes aegypti, UniProt H6D5H2); conditions: human D1 IC50 divided by AaDOP2 IC50
T1 sequence (H6D5H2 1-476): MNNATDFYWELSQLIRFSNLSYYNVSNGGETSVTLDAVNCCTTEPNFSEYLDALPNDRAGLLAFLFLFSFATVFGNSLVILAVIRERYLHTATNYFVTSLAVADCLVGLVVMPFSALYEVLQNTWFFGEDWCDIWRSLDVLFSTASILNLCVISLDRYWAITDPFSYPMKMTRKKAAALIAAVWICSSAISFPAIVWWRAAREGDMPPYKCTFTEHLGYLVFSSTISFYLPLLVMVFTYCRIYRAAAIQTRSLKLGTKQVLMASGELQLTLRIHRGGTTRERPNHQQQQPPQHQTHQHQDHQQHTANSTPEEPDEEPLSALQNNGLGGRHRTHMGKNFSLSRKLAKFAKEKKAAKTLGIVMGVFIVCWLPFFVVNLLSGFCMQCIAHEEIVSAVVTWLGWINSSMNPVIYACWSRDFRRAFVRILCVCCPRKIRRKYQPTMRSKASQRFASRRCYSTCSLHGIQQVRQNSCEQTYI

CqDOP2 = CqDOP2 (Culex quinquefasciatus, UniProt A0A0B5H0X6); conditions: human D1 IC50 divided by CqDOP2 IC50
Human D1 = target: T2, Human D1 (Homo sapiens, UniProt P21728); experiment: Inhibition of dopamine-stimulated cAMP response (HTRF) in HEK293 cells expressing human D1; assay type: cell-based
T2 construct: expressed in transfected cells

## CN(C)CCC=C1c2ccccc2CCc2ccccc21 [Amitriptyline, amitriptyline hydrochloride]
AaDOP2
  Fold selectivity to Human D1, AaDOP2: 108
CqDOP2
  Fold selectivity to Human D1, CqDOP2: 209

## CN(C)CCC=C1c2ccccc2COc2ccccc21 [Doxepin, doxepin hydrochloride]
AaDOP2
  Fold selectivity to Human D1, AaDOP2: 111
CqDOP2
  Fold selectivity to Human D1, CqDOP2: 227

## OCCN1CCN(CC/C=C2/c3ccccc3Sc3ccc(C(F)(F)F)cc32)CC1 [Cis-(Z)-flupenthixol, cis-(Z)-flupenthixol dihydrochloride]
Human D1
  IC50: 9.4 ± 3 nM
AaDOP2
  Fold selectivity to Human D1, AaDOP2: 5
CqDOP2
  Fold selectivity to Human D1, CqDOP2: 5

## CN1CC2c3ccccc3Oc3ccc(Cl)cc3C2C1 (stereo not drawn) [Asenapine, asenapine maleate]
AaDOP2
  Fold selectivity to Human D1, AaDOP2: 144
CqDOP2
  Fold selectivity to Human D1, CqDOP2: 126
